Columns and labels:
STAT3 = assay: Western blot of STAT3 and phospho-STAT3 in A375 cells; type: cell-based, human; conditions: A375 cells co-treated with IFN-γ; MAC-3-190 at 3 μM
Description: (§1) FIG. 3. A) Effects of IFN-γ on STAT3 and phosphor-STAT3 expression levels in melanoma. A375 cells were treated with 100 units/mL and 250 units/mL of IFN-γ or IFN-α for 24 hours; whole cell lysates and nuclear extracts were used for Western blot analysis to detect STAT3 and pSTAT3 respectively. […]. Protein isolation and Western blotting. All samples were kept at 4° C. unless otherwise noted. Whole cell lysates were collected by incubating cell suspensions in 1× lysis buffer (9803S; Cell Signaling, Danvers, MA) with 1% protease inhibitor cocktail (PIC) for 15 minutes then lysed via sonication at 40% amplitude with 15 seconds on and 15 seconds off for 1 minute. Protein samples were isolated using centrifugation at 14,000 g^−1 for 10 minutes at 4° C.
Nuclear and cytosolic protein extraction is described elsewhere (84). […]
(§2) Equal amounts of protein, as detected by Bradford assay, were loaded and resolved on 7.5% SDS-polyacrylamide gels, then transferred to Immobilon-P^SQ polyvinylidene difluoride (PVDF) membranes (ISEQ00010; Merck KGaA, Darmstadt, Germany). […] Labeled bands were detected using SuperSignal horseradish peroxidase chemiluminescence reagents (1859674; 1859675; Thermo Fisher Scientific, Waltham, MA) and images were captured and analyzed using the Bio-Rad ChemiDoc XRS^+ System.

STAT1 = assay: Western blot of STAT1 in A375 cells; type: cell-based, human; conditions: A375 cells co-treated with IFN-γ; MAC-3-190 at 3 μM, 48 hours
Description: as §1, §2

## N=C(Nc1ccc(CCNCc2cccc(NC(=N)c3cccs3)c2)cc1)c1cccs1 [HH044]
STAT3
  induction/activation of STAT3 by IFN-γ: abolished
STAT1
  induction/activation of STAT1 by IFN-γ: abolished

— US12083113B2, “Use of neuronal nitric oxide synthase inhibitors for immunotherapy in melanoma patients” (Northwestern University, priority 2018, dated 2024)
